Results reported in article PMC6099451, “Structure and Biocatalytic Scope of Coclaurine N‐Methyltransferase” (Angewandte Chemie (International Ed. in English), 2018).

By UniProt entry, the sequences of proteins in these tests, tags left out.
UniProt Q948P7, entry or part of it: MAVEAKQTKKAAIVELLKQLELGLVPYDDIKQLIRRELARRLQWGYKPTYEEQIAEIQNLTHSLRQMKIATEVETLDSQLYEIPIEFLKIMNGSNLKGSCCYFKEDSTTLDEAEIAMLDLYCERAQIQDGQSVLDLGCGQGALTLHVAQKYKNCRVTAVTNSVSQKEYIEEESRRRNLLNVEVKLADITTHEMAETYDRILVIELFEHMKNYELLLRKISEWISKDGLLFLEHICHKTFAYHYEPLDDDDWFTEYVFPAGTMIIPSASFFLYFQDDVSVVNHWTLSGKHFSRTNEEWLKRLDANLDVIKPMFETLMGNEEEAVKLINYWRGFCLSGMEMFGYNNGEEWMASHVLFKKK
UniProt Q948P7, entry or part of it W329A: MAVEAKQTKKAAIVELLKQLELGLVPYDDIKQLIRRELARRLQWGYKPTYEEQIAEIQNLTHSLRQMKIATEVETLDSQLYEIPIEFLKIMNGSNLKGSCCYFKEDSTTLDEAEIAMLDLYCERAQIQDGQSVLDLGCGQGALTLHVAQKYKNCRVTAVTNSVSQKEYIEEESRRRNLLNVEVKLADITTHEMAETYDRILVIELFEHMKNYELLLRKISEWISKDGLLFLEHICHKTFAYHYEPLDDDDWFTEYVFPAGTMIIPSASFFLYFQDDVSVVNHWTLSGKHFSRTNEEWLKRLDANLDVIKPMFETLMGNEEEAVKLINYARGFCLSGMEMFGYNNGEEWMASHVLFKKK

Tests used:
[1] = molecular target: CNMT (coclaurine N-methyltransferase) (Coptis japonica, UniProt Q948P7); assay: X-ray crystal structure; conditions: active site, flipped relative to 8 a
[2] = molecular target: CNMT (coclaurine N-methyltransferase) (Coptis japonica, UniProt Q948P7, W329A); type: biochemical; conditions: AdoMet as methyl donor; stereochemistry of 3 not stated in main text

Compound	X-ray crystal structure [1]	Km [2] [µM]
COc1cc2c(cc1OC)CC(=O)NC2 [compound 9, quinolinone substrate analog 9]	A third structure (PDB 6GKY) was determined for CNMT in complex with a quinolinone	–
Oc1ccc(C[C@@H]2NCCc3cc(O)c(O)cc32)cc1 [compound 3, norcoclaurine]	–	1030 ± 64
